Experiment [1] addresses T1, E-cNOS (Bos taurus, UniProt P29473).
T1 construct: the mixture was homogenized for 3 min to yield the crude enzyme sample of E-cNOS; endogenous in cells; host or cells: CPAE (cow pulmonary arterial endothelium) cells, whole homogenate
Nature of the experiment: Inhibition of E-cNOS activity, L-[3H]arginine to L-[3H]citrulline conversion (CPAE homogenate). The class given is biochemical, cow. On the procedure: The compound of Example 1 was evaluated for its inhibitory action against N-cNOS and E-cNOS in comparison with previously reported NOS inhibitors.
A crude enzyme sample of N-cNOS was a soluble cytosolic fraction of the rat cerebral cortex whereas a crude enzyme sample of E-cNOS was a homogenate of cow pulmonary arterial endothelium (CPAE) strain.
The crude enzyme sample of E-cNOS was prepared by the following procedure. CPAE was cultured in a MEM medium containing 20% of FBS. Several days later, the cells were detached from the flask using a solution of 0.25% trypsin containing 1 mM EDTA in 0.1M phosphate-buffered saline (PBS; pH 7.4) and centrifuged at 1,000 rpm for 5 min. […]
The method of measuring the NOS activity was basically the same as already reported by the present inventors and consisted of determining quantitatively the conversion of a substrate L-[^3 H] arginine to a reaction product L-[^3 H] citrulline [Brain Edema IX (Ito et al. eds.) 60, pp. 285-288, 1994, Acta Neurochir., Springer-Verlag]. […]
The reaction was started by adding L-[^3 H] arginine to the reaction solution and the mixture was incubated at 37° C. for 10 min. […] Thereafter, 5 ml of a scintillation fluid was added and the contained radioactivity was measured with a liquid scintillation counter to determine the amount of L-[^3 H] citrulline. […]

Experiment [2] deals with T2, N-cNOS (Rattus norvegicus, UniProt P29476).
T2 construct: a soluble cytosolic fraction of the finally obtained supernate was used as the crude enzyme sample of N-cNOS; from tissue; host or cells: cerebral cortex of normal untreated male Sprague-Dawley rats, 100,000×g cytosolic supernatant
Nature of the experiment: Inhibition of N-cNOS activity, L-[3H]arginine to L-[3H]citrulline conversion (rat cerebral cortex cytosol). It counts as biochemical. Particulars: rat cerebral cortex soluble cytosolic fraction; 100 nM L-[3H]arginine, 37° C., 10 min; mean±standard error, n in parentheses; read-out: IC50 values, N-cNOS (Brain cytosol).

For three compounds, IC50 results are on record in patent US5869526A, “δ-(S-methylisothioureido)-L-norvaline therapeutic for cerebrovascular diseases having nitric oxide synthase inhibiting factor” (priority 1994, dated 1999).

Where two headings read alike, the source gives them in different places.

For `CNC(=N)NCCC[C@H](N)C(=O)O` [L-NMMA, N^G -monomethyl-L-arginine], in experiment [1], inhibition was half-maximal at 951 ± 232 nM (IC50).

As to `N=C(NCCC[C@H](N)C(=O)O)N[N+](=O)[O-]` [L-NNA, N^G -nitro-L-arginine], the IC50 (as a rule, the point on the concentration scale where inhibition reaches its midpoint) in experiment [1] (cow pulmonary arterial endothelium homogenate, 100 nM L-[3H]arginine, 37° C., 10 min, mean±standard error, n in parentheses, read-out: IC50 values, E-cNOS (CPAE)) stood at 89.8 ± 28.7 nM.

As for `CC(=N)NCCC[C@H](N)C(=O)O` [L-NIO, N^G -iminoethyl-ornithine, reference compound], the IC50 in experiment [2] is 277 ± 58.7 nM.
